Literature values in patent US20120277265A1, “NOVEL POLYQUINOLINE DERIVATIVES AND THE THERAPEUTIC USE THEREOF” (CENTRE NATIONAL DE LA RECHERCHE SCIENTIFIQUE (C.N.R.S.), priority 2005, published 2012).

Conditions: 25° C., ionic strength 0.1-0.2, metal ion to chelator 1/1; cited from earlier work

NCCN [EDA, ethylenediamine]
log K1 (stability constant for the MLc species), Cu(II): 10.5
